# Measured values: PMC8647500 (Molecular Brain, 2021)
# Structures can show the parent of a compound that is named as a salt.
# Tested on: mutants of DA1.0 (#76, #310, and #430)
# Conditions: HeLa cells, SCH 10 μM
structure (smiles),measurement,value
"CN1CCc2cc(Cl)c(O)cc2[C@@H](c2ccccc2)C1 [SCH, R( +)-SCH 23390 hydrochloride]","effect of antagonist on the response of mutants #76, #310 and #430 to DA",blocked
